{"source": "patent US7928097B2", "about": "“Photoreactive compounds and compositions” (priority 2001, dated 2011)", "key": {"GG dinucleotide [d(GpG)]": {"system": "GG dinucleotide [d(GpG)]", "assay": "Photoactivation and binding to GG dinucleotide", "details": "1 mM d(GpG), 457.9 nm, 20 mW, 60 minutes; NMR and mass spectrometry", "experimental": "In more detail irradiation was carried out using an argon-krypton ion laser (Coherent Innova 70C Spectrum) equipped with a fibre optic (FT-600-UMT, Ø (diameter) 600 μm; Elliot Scientific Ltd.) to deliver light (λ=457.9 nm, 488 nm, 647.1 nm) directly into the sample within the magnet of the NMR spectrometer. The laser output, after the fibre, was in the range of 10 to 75 mW, as measured by a Coherent 210 power meter. 1D ^1H and 2D [^1H,^15N] HSQC spectra were recorded on a Bruker DMX 500 NMR spectrometer (^1H 500.13 MHz, ^15N 50.7 MHz) at a pH value of 5 using sodium 3-(trimethylsilyl)propionate-2,2,3,3-d4 (TSP, 0 ppm) as internal δ (^1H) standard. When cis,trans-[Pt^IV(en)(N3)2(OH)2] was analysed in a similar way 2D [^1H,^15N] HSQC-TOCSY spectra were also recorded. All δ (^15N) were referenced externally to ^15NH4^+ at δ=0. pH values were measured with a pH-meter (Orion 710A) equipped with a microcombination electrode (Aldrich) calibrated with Aldrich standard buffers (pH 4, 7 and 10) and was adjusted with dilute solutions of HClO4 and NaOH. No correction was made for ^2H isotope effects on the glass electrode.\nThe procedure of example 8 was repeated with a solution containing 1 mM GG dinucleotide [d(GpG)]. […]"}, "[1]": {"assay": "Stability in blood plasma (NMR)", "details": "2 mg in 0.5 mls blood plasma, after 2 weeks"}, "[2]": {"assay": "Stability in aqueous solution (NMR)", "details": "5 mM aqueous solution, after 2 months"}, "[3]": {"assay": "Stability in 0.1M aqueous NaCl (NMR)", "details": "5 mM in 0.1M aqueous NaCl, after 2 days"}, "[4]": {"assay": "Stability in aqueous glutathione (NMR)", "details": "2 mM in 5 mM aqueous glutathione, kept in the dark for 8 weeks"}, "HaCaT": {"system": "HaCaT", "assay": "Phototoxicity, neutral red dye uptake, HaCaT cells", "format": "cell-based", "experimental": "(§1) 2×6 ft Cosmolux RA Plus (Cosmedico), 15500/100 W light sources were used, each filtered to attenuate UVB/UVC wavelengths. Irradiance was measured with a Waldmann PUMA meter, calibrated to the source using a double grating Spectroradiometer (Bentham, UK).\n(§2) Immediately before use, the compounds were dissolved in warm Earle's Balanced Salt Solution (EBSS), sonicated and vortexed to assist dissolution. For experiments, cells were seeded at densities of 3- or 5×10^4 cells/cm^2. After overnight incubation, washed cells were incubated with test compounds in EBSS for 1 h at 310 K/5% CO2. Cells were then irradiated with 5 J cm^−2 glass filtered UVA (1.77 mW cm^−2: λmax 365 nm) for 50 min. Test compounds were removed and cells either prepared immediately for photogenotoxicity assays, or incubated with complete medium for 24 h before assessing phototoxicity. Control plates were treated identically to the test plates and sham irradiated.\n(§3) Phototoxicity was monitored by measuring the uptake of neutral red dye into viable cells. Briefly, after irradiation cells were washed and then incubated with DMEM containing 5% FCS, 1% NEAA and 50 μg ml^−1 neutral red dye for 3 h at 310 K/5% CO2. […] Absorbance was read at 540 nm against a solubilisation solution as blank. […] Goodness of fit was determined from the R^2 values of the curves and 95% confidence intervals."}, "A2780": {"system": "A2780", "assay": "Phototoxicity, neutral red dye uptake, A2780 cells", "format": "cell-based", "experimental": "as §1, §2, §3"}, "A2780CIS": {"system": "A2780CIS", "assay": "Phototoxicity, neutral red dye uptake, A2780CIS cells", "format": "cell-based", "experimental": "as §1, §2, §3"}}, "note": "pIC50: −log10 of the molar value. Read-outs that look alike come from different tables or passages of the source."}
{"substance": "Cis,trans,cis-[Pt^IV(N3)2(OH)2(NH3)2]", "values": [{"measurement": "Binding to GG dinucleotide after blue light irradiation", "setting": "GG dinucleotide [d(GpG)]", "result": "binding of species containing the cis-[Pt^II(NH3)2] moiety to GG had taken place"}, {"measurement": "Stability in blood plasma (reduction product)", "setting": "[1]", "result": "No sign of any reduction product was detected"}, {"measurement": "Stability in aqueous solution (hydrolysis)", "setting": "[2]", "result": "No sign of any hydrolysis was detected"}, {"measurement": "Azide ligand substitution by chloride", "setting": "[3]", "result": "No evidence of any azide ligand substitution"}, {"measurement": "Reduction by glutathione", "setting": "[4]", "result": "No evidence of any reduction"}]}
{"substance": "Trans,trans,trans-[Pt(N3)2(OH)2(NH3)(2-bromo-3-methylpyridine)]", "values": [{"measurement": "pIC50", "setting": "HaCaT; read-out: IC50 Value HaCaT 365 nm, irradiated 5 J cm^-2 UVA, λmax 365 nm, 50 min, neutral red uptake after 24 h", "result": 4.23}, {"measurement": "pIC50", "setting": "HaCaT; read-out: IC50 Value HaCaT Dark, dark, sham irradiated control", "result": 4.01}, {"measurement": "pIC50", "setting": "A2780; read-out: IC50 Value A2780 365 nm, irradiated 5 J cm^-2 UVA, λmax 365 nm, 50 min, neutral red uptake after 24 h", "result": 4.80}, {"measurement": "pIC50", "setting": "A2780; read-out: IC50 Value A2780 Dark, dark, sham irradiated control", "result": 4.50}, {"measurement": "pIC50", "setting": "A2780CIS; read-out: IC50 Value A2780CIS 365 nm, irradiated 5 J cm^-2 UVA, λmax 365 nm, 50 min, neutral red uptake after 24 h", "result": 4.42}, {"measurement": "pIC50", "setting": "A2780CIS; read-out: IC50 Value A2780CIS Dark, dark, sham irradiated control", "result": 4.26}]}
